Our source for the EC50 values is ChEMBL document CHEMBL1130264 (J Med Chem, 1997).

The experiment deals with Neuronal acetylcholine receptor. Briefly: Compound was evaluated for functional potency and efficacy at rat Nicotinic acetylcholine receptor in PC12 cells (ganglionic). It is filed as cell-based. To be noted: pc-12.

As a reminder, the EC50 is the concentration that produces a half-maximal response. Low readings indicate an effect from little substance, high ones a need for much substance. `CNC1(C)C2CCC(C2)C1(C)C` (stereo unspecified) [MECAMYLAMINE]: it took 200 nM to reach a half-maximal effect (EC50).
